Measured values: US20250027072A1, “METHODS AND CO[…] TO ENGINEERED CANNABINOID RECEPTORS” (priority 2021, published 2025)

Chains of the proteins cited; added tags and fusions are not shown.
UniProt P34972, whole entry: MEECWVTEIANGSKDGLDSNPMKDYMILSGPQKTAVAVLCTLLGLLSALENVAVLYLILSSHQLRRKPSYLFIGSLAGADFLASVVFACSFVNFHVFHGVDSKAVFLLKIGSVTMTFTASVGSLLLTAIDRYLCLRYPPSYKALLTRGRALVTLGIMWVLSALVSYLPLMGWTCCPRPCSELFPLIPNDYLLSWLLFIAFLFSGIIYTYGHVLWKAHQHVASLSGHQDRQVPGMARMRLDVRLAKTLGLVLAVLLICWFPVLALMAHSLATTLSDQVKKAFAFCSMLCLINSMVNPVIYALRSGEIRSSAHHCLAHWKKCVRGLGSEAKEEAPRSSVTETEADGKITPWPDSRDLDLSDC

Experiments:
Assay in all cases: cell-based
[1] = molecular target: T1, human cannabinoid receptor type II (CB2R) (Homo sapiens, UniProt P34972); details: EC50, dose response with CB2R, Ste2 signal sequence CB2R
Excerpt: (§1) To enable function, Ste2 (the native yeast GPCR of the MATa haplotype), the negative regulator SST2 (a GTPase activating protein), and FAR1, which regulates cell cycle, were deleted in a manner consistent with prior efforts (Lengger et al. 2019). To efficiently transduce signals from the human machinery to the yeast pathway, the yeast 5 C-terminal residues of the G-alpha gene GPA1 were replaced with the sequence of the Gαi3 human G-alpha variant as previously described (Brown et al. 2000). ZsGreen1 was used to report on the activity of the pathway, integrating it into the genome in place of the pheromone-inducible Fig1 gene (FIG. 14A).
(§2) Therefore, all compounds were subsequently screened with the CB2R biosensor strain at pH 5.8.
(§3) Yeast colonies were picked and grown overnight to saturation in pH 5.8 SD-His media in a 2.2 mL deep well plate (Axygen) grown in a plate-shaking incubator (30° C., 1000 rpm, 3 mm orbital). In the morning cultures were diluted 1:10 or 1:25 in SD-His media buffered to pH 7.1 with 100 mM MOPSO (unless otherwise specified). Ligands were added to the culture and incubated with shaking for 8 hours. Cells were then washed three times with ice-cold Tris buffer (pH 7) and diluted 1:20 for cytometry. All cytometry was performed on a Sony SA3800 spectral analyzer. Each sample was tested for 10,000 events, and read at a rate of 1,000 events per second. […]

[2] = molecular target: T1, human cannabinoid receptor type II (CB2R); parameters: other: syn-prepro CB2R; "Syn=synthetic pre-pro"; fused on or other part: synthetic yeast pre-pro secretion leader (syn-prepro) fused at the N-terminus; details: EC50, dose response with CB2R, syn-prepro CB2R
Excerpt: as §1, §2, §3

[3] = molecular target: T1, human cannabinoid receptor type II (CB2R); parameters: other: MF alpha leader CB2R; "MF-α=mating factor alpha pre-pro"; fused on or other part: yeast mating factor alpha (MFα) pre-pro leader fused at the N-terminus; details: EC50, dose response with CB2R, MF alpha leader CB2R
Excerpt: as §1, §2, §3

[4] = molecular target: T1, human cannabinoid receptor type II (CB2R); parameters: MFα (mating factor alpha) pre-pro leader (N); expressed in transfected cells; host or cells: Saccharomyces cerevisiae BY4741-derived biosensor strain (Gpa1-Gαi3 chimera, ZsGreen reporter); sterol-modified strain ST03 for the screens, pH 5.8; details: EC50, dose response with CB2R, WT CB2R (no leader)
Excerpt: as §1, §2, §3

Compound: CCCCC/C=C\C/C=C\C/C=C\C/C=C\CCCC(=O)NCCO [AEA, N-arachidonoylethanolamine]
- EC50 [1]: 40.8 µM
- EC50 [2]: 7620 µM
- EC50 [3]: 419 µM
- EC50 [4]: 76.9 µM
